From patent publication US5792759A, “17-hydroxyiminoalkyl and 17-hydroxyiminomethylalkenyl cyclopentaneperhydrophenanthrene derivatives active on the cardiovascular system, a process for their preparation and pharmaceutical compositions containing the same” (Sigma-Tau Industrie Farmaceutiche Riunite S.p.A., priority 1995, dated 1998)

System: SPONTANEOUS HYPERTENSIVE RATS (MHS)
Assay: prevention of development of hypertension in pre-hypertensive rats, tail-cuff SBP and HR, 5 week oral treatment
Details: n=7, 20 mg/kg/os daily in 0.5% (w/v) Methocel, 5 weeks

## C[C@]12CC[C@H]3[C@@H](CC=C4C[C@@H](O)CC[C@@]43C)[C@@H]1CC[C@@H]2/C=C/C=N/OCCN [I-g, (E,E)-17β-[3-(2-aminoethoxyimino)-1-propenyl]-androst-5-en-3β-ol]
Controls 172+/-50
  SBP (systolic blood pressure): 160+/-7.8 mm Hg
Controls 380+/-6.3
  HR (heart rate): 377+/-10.5 beats/min.
